In patent US9426996B2, “Use of benzoxaboroles as volatile antimicrobial agents on meats, plants, or plant parts” (AgroFresh Inc., priority 2013, dated 2016):

System: M. piriformis
Assay: in vitro volatile MIC assay (Example 10)
Format: cell-based
Settings: 72 h, read-out: MIC M. piriformis

Q: For OB1OCc2ccccc21 [Compound B, 2-(hydroxymethyl)phenylboronic acid cyclic monoester], which MIC is on record?
A: 2.2 µg/mL (≈ 16.4 µM)

Values after ≈ are worked out from the molar mass of the structure shown.
